Data published in US9062123B2, “Labelled adrenomedullin derivatives and their use for imaging and therapy” (PLUMOSCIENCE INC., priority 2004, dated 2015).

Key:
[1] = In vivo single-pass pulmonary extraction of 125I-rAM(1-50) in dogs (indicator-dilution); set-up: species or system dog; conditions: intravenous bolus of 100 nmol, 5 min before
Description: Dogs were anaesthetized and prepared as described in detail in reference, which is hereby incorporated by reference. A catheter was inserted into the carotid artery and positioned just above the aortic valve. This catheter was connected to a peristaltic pump for automated blood withdrawal. Another catheter was placed into the jugular vein and positioned in the right ventricular outflow tract to allow bolus injection of the study tracers. A bolus was prepared by adding 3.3 μCi of 125I-rAM(1-50) (2.9 pmol) to 3 ml of Evans-Blue-dye labelled albumin and 0.9% saline to give a final volume of 6 ml. The mixture was separated into three equal parts for the two successive experiments in each animal and to realize dilution-curve standards. A baseline single-bolus indicator-dilution experiment was performed. After 5 min, CGRP (n=7), hAM(22-52) (n=8) and unlabelled rAM(1-50) (n=9) were administered as an intravenous bolus of 100 nmol and 5 min later a second indicatordilution experiment was performed.
The collected samples were processed and indicator-dilution curves constructed and analyzed as described in previously cited reference 13. Cardiac output and mean tracer AM extraction during the pulmonary transit time were computed from the curves. […]

[2] = Biodistribution / organ retention of 125I-rAM(1-50) in rats, with and without antagonists; assay type: in vivo, rat
Description: The animals were then killed and the lungs, liver, kidneys (en bloc with the adrenal glands) and heart were removed and gravity drained. […] Results are expressed as a percentage of total radioactivity injected.
Three groups of rats (n=20 in each) were studied and received either 200 μl of hAM(22-52) (5.6 nmol; Bachem), 100 μl of CGRP (1.75 nmol; Phoenix Pharmaceuticals) or 100 μl of unlabelled rAM(1-50) (17.5 nmol; American Peptide). The drugs were given by either intraarterial (n=10 in each group) or intravenous (n=10 in each group) injection 5 min before the ^125I-rAM(1-50) bolus. Plasma samples and tissues were treated as described above.

[3] = Plasma kinetics of 125I-rAM(1-50) after single intravenous injection in rats; assay type: in vivo, rat; conditions: given 5 min before the 125I-rAM(1-50) bolus
Description: All experimental procedures were performed in accordance with the regulations and ethical guidelines from Canadian Council for the Care of Laboratory Animals, and received approval by the Animal Ethics and Research Committee of the Montreal Heart Institute. Male Sprague-Dawley rats (Charles River), weighing between 400-450 g, were anaesthetized by an initial intramuscular dose of xylazine (10 mg/kg of body weight) and ketamine (50 mg/kg of body weight), followed by an intra-peritoneal injection of heparin (2000 units; Sigma). Catheters were inserted into the right carotid artery and jugular vein. Heart rate and systemic blood pressure were monitored continuously. […] Venous and arterial blood samples (3 ml) were collected and centrifuged (1875 g, 15 min, 4° C.) and the plasma saved for subsequent measurement of irAM (immunoreactive AM). A similar amount of saline was infused into the animals to prevent hypovolaemia.
The animals were then killed and the lungs, liver, kidneys (en bloc with the adrenal glands) and heart were removed and gravity drained. […] Results are expressed as a percentage of total radioactivity injected. […]
Multiple group comparisons were performed by factorial ANOVA, followed, when a significant interaction was found, by the Bonferroni/Dunn t test. […] In the canine experiments, the effect of drugs on AM extraction was analyzed by two-tailed paired Student's t tests. […]

[4] = target: AM1 (CRLR+RAMP2) receptor, lungs of dogs; assay: Displacement of labelled human adrenomedullin in the lungs of dogs; assay type: binding, dog; conditions: displacement of labelled hAM
Source text: These concentrations, denoted by IC-50, are shown in Table 1 for various adrenomedullin fragments and linear and cyclic adrenomedullin peptides.

IC50 [4] | Substance | single-pass pulmonary extraction of 125I-rAM(1-50) after administration of the substance [1] | effect on biodistribution of 125I-rAM(1-50) ([2]; given before the tracer) | effect on pulmonary first-pass retention of 125I-rAM(1-50) ([2]; prior administration) | effect on plasma kinetics of radiolabelled rAM(1-50) [3]
 | calcitonin gene-related peptide (ACDTATCVTHRLAGLLSRSGGVVKNNFVPTNVGSKAF; Calcitonin gene-related peptide 1; UniProt P06881 83-119, looked up) [CGRP, calcitonin gene-related peptide (Phoenix Pharmaceuticals)] | 40.6±2.9% | did not significantly modify this distribution | not affected | did not modify plasma kinetics
440 nM | hCGRP: human calcitonin gene-related peptide |  |  |  | 
